## Apparent affinities of Ab-95 variants for a coronavirus HR2 peptide

Target: peptide PDVDLGDISGINAS, taken from heptad repeat 2 (HR2) of SARS-CoV-2 spike.

Each scFv is VH, three GGGGS repeats, VL, as in the parent Ab-95, and differs from it in the CDRs of the light chain only.
VH: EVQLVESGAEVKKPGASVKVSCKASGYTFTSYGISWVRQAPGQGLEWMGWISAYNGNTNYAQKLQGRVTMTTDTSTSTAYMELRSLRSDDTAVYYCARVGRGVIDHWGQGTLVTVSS
VL: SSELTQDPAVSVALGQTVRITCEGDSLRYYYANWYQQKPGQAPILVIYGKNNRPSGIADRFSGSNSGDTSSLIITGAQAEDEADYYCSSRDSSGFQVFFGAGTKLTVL

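The parent was found by panning a naive human phage display library on the peptide. Library AAYL52 holds single substitutions and randomly drawn double and triple substitutions in the CDRs. In AlphaSeq, yeast of one mating type display the scFv and yeast of the other type display the target. Binding brings cells together so that they mate, and sequencing counts the barcode pairs among the diploids. Read counts were normalised to the haploid input and turned into Kd by a linear fit to BCL2-family pairs of known affinity, for each replicate. There are three technical replicates.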

Changes read parent residue, position, new residue, counted from the first residue of the VL shown.
The read-out is the apparent dissociation constant on a log10 scale (nM): the lower, the stronger.
Replicates are averaged; those with no signal do not enter the mean.
Where no diploid with the target was found in that replicate, the entry reads "nd": below detection, most likely a poor binder, though not proof of it.

changes	log10 Kd, replicates	mean, log10 nM	empty controls
D25F Y31I	4.04 / nd / 2.91	3.47	3 of 9 (3.85)
E23P D25I N33S	3.39 / nd / nd	3.39	4 of 9 (3.81)
G24Q A32I S93G	nd / nd / 4.30	4.30	2 of 9 (3.86)
E23K Y31P S55F	0.79 / 0.60 / -0.20	0.40	1 of 9 (2.65)
Y29L Y31W D91H	nd / nd / nd	nd	3 of 9 (3.90)
E23Q S88R R90E	5.14 / nd / 4.79	4.96	4 of 9 (4.04)
G24M D25R V97N	4.59 / nd / nd	4.59	3 of 9 (4.70)
S26I Y31K R90L	5.48 / 4.25 / 3.37	4.37	2 of 9 (4.55)
D91I G94D F95V	2.43 / 2.44 / 4.40	3.09	4 of 9 (3.42)
N51V R53K P54R	nd / nd / nd	nd	3 of 9 (4.30)
A32T N52S R90K	2.93 / 3.16 / 2.77	2.95	3 of 9 (3.78)
D25V S93Y Q96A	2.09 / 2.69 / 1.66	2.15	2 of 9 (4.46)
K50A S55C F98G	3.14 / 2.66 / 3.27	3.02	2 of 9 (3.97)
G24I S55M D91T	4.02 / nd / nd	4.02	2 of 9 (3.34)
N52K R90Q S92F	3.88 / nd / 4.33	4.10	1 of 9 (3.62)
R53A	2.90 / 2.55 / 2.53	2.66	4 of 9 (4.24)
A32T K50S S93C	2.61 / 2.91 / 3.41	2.98	3 of 9 (3.78)
E23M S55R V97F	2.88 / 3.80 / 2.94	3.21	3 of 9 (3.84)
R53K S92Q	1.80 / 1.57 / 1.56	1.64	3 of 9 (4.39)
L27E R28A Y30H	nd / nd / nd	nd	0 of 9
S26Q N52S S88G	nd / 4.44 / 3.92	4.18	5 of 9 (4.40)
G49W N52E R90D	4.74 / nd / 3.46	4.10	3 of 9 (3.93)
G49W N51A V97E	nd / nd / nd	nd	1 of 9 (3.74)
R28I Y31T N52E	nd / nd / nd	nd	0 of 9
Y29S R53P F95Y	nd / nd / nd	nd	3 of 9 (4.22)
G24D Y30L N52D	3.23 / 2.88 / 3.58	3.23	3 of 9 (4.32)
N52R S88V V97I	nd / 3.39 / nd	3.39	2 of 9 (4.50)
G24C S88H V97S	nd / nd / nd	nd	2 of 9 (3.73)
L27W N33S Q96C	3.91 / nd / nd	3.91	6 of 9 (4.01)
G24F G49M R90P	nd / 3.45 / 3.54	3.49	4 of 9 (3.59)
S26D S88G F98I	5.11 / 4.42 / nd	4.76	4 of 9 (4.00)
R28D A32G V97G	3.23 / 4.03 / nd	3.63	4 of 9 (4.28)
D25P N33S V97L	3.50 / nd / 3.62	3.56	3 of 9 (3.53)
D25Y Y30V V97C	2.43 / 2.37 / 1.94	2.24	5 of 9 (3.92)
Y29E N52P R53S	nd / 5.05 / nd	5.05	2 of 9 (3.28)
G24S Y30V S93H	3.26 / nd / 3.97	3.61	5 of 9 (3.87)
Y29G Y30N Q96E	1.18 / 1.05 / 0.53	0.92	4 of 9 (3.95)
G24R Y30V P54H	3.37 / nd / nd	3.37	1 of 9 (4.37)
E23K D25R F98S	2.66 / 2.65 / 2.34	2.55	3 of 9 (4.72)
P54V R90Q F95K	3.38 / 2.92 / 2.69	3.00	2 of 9 (3.95)
Y31H N33H F98Y	nd / 3.23 / nd	3.23	0 of 9
N33A S55N R90S	nd / nd / nd	nd	0 of 9
A32T S92Q V97E	2.10 / 3.18 / 1.65	2.31	2 of 9 (3.14)
G24W G49F N52T	nd / nd / 3.65	3.65	0 of 9
R28Y R53V S89W	5.29 / 2.46 / nd	3.88	3 of 9 (3.44)
D25A S88M	1.19 / 1.16 / 0.27	0.87	0 of 9

7 of these entries, quoted again:

changes	log10 Kd, replicates	mean, log10 nM	empty controls
D25P N33S V97L	3.50 / nd / 3.62	3.56	3 of 9 (3.53)
S26I Y31K R90L	5.48 / 4.25 / 3.37	4.37	2 of 9 (4.55)
E23K Y31P S55F	0.79 / 0.60 / -0.20	0.40	1 of 9 (2.65)
D25A S88M	1.19 / 1.16 / 0.27	0.87	0 of 9
R53A	2.90 / 2.55 / 2.53	2.66	4 of 9 (4.24)
D25Y Y30V V97C	2.43 / 2.37 / 1.94	2.24	5 of 9 (3.92)
D91I G94D F95V	2.43 / 2.44 / 4.40	3.09	4 of 9 (3.42)

Parent in this assay: reference entry 2.31, copy in this library 2.25.
Nonspecific signal, from three strains lacking the peptide, appeared in 28% of pairings of library AAYL52, centred on 3.91 (5% of these signals below 2.90); values are not corrected for it. Also given: how often the same scFv was detected with the empty control strains, with their mean in brackets.

Data: MIT Lincoln Laboratory AlphaSeq set, Engelhart et al. 2022, doi:10.1038/s41597-022-01779-4, as distributed in FLAb.